Source: ChEMBL document CHEMBL1127540, “Three-dimensional pharmacophores from binding data” (J Med Chem, 1994)

Molecular target: Human immunodeficiency virus type 1 protease (Human immunodeficiency virus 1, UniProt Q72874)
Assay: Binding affinity to HIV-1 protease

Compound	Ki [µM]
CC[C@H](C)[C@H](NC(=O)[C@H]1CCCN1C[C@H](O)[C@H](Cc1ccccc1)NC(=O)[C@H](CC(N)=O)NC(=O)[C@H](CC(C)C)NC(C)=O)C(=O)OC	4.57
CC[C@H](C)[C@H](NC(=O)[C@H]1CCCN1C(=O)[C@H](O)[C@@H](Cc1ccccc1)NC(=O)OC(C)(C)C)C(=O)N[C@H](C(=O)OC)C(C)C	347
CC[C@H](C)[C@H](NC(=O)[C@H]1CCCN1C(=O)[C@@H](O)[C@@H](Cc1ccccc1)NC(=O)OC(C)(C)C)C(=O)N[C@H](C(=O)OC)C(C)C	389

Second part, the compound after the results:

Ki [µM]	Compound
39.8	CC[C@H](C)[C@H](NC(=O)[C@H]1CCCN1C(=O)[C@@H](O)[C@H](Cc1ccccc1)NC(=O)OC(C)(C)C)C(=O)N[C@H](C(=O)OC)C(C)C
363	CC[C@H](C)[C@H](NC(=O)[C@H]1CCCN1C(=O)[C@H](O)[C@H](Cc1ccccc1)NC(=O)OC(C)(C)C)C(=O)N[C@H](C(=O)OC)C(C)C
